According to ChEMBL document CHEMBL2375342, “Novel 5-(benzyloxy)pyridin-2(1H)-one derivatives as potent c-Met inhibitors” (Bioorg Med Chem Lett, 2013):

What was measured:
[1] = species: Homo sapiens; test: Selectivity ratio of IC50 for ABL (unknown origin) to IC50 for c-MET (unknown origin)
[2] = species: Homo sapiens; test: Selectivity ratio of IC50 for RON (unknown origin) to IC50 for c-MET (unknown origin)

- Ratio IC50 [1]: > 20
- Ratio IC50 [2]: > 20
SMILES: C[C@@H](Oc1c[nH]c(=O)c(C(=O)Nc2ccc(N3CCN(C)CC3)cc2)c1)c1c(Cl)ccc(F)c1Cl
